Source: patent US20220204624A1 (published 2022)

Experiments:
Test in all cases: Octet
1C11_H3_L3.73 = biological target: 1C11_H3_L3.73
1C11_H3_L3.62 = biological target: 1C11_H3_L3.62
1C11_H3_L3.63 = biological target: 1C11_H3_L3.63
1C11_H3_L3.57 = biological target: 1C11_H3_L3.57
1C11_H3_L3.1 = biological target: 1C11_H3_L3.1
1C11_H3_L3.32 = biological target: 1C11_H3_L3.32
1C11_H3_L3.3 = biological target: 1C11_H3_L3.3
1C11_H3_L3.125 = biological target: 1C11_H3_L3.125
1C11_H3_L3.87 = biological target: 1C11_H3_L3.87
1C11_H3_L3.92 = biological target: 1C11_H3_L3.92
1C11_H3_L3.46 = biological target: 1C11_H3_L3.46
1C11_H3_L3.59 = biological target: 1C11_H3_L3.59
1C11_H3_L3.69 = biological target: 1C11_H3_L3.69
1C11_H3_L3.113 = biological target: 1C11_H3_L3.113
1C11_H3_L3.28 = biological target: 1C11_H3_L3.28
1C11_H3_L3.94 = biological target: 1C11_H3_L3.94
1C11_H3_L3.122 = biological target: 1C11_H3_L3.122
[1] = biological target: 1C11_H3.229_L3 (XENP25326)
[2] = biological target: 1C11_H3.231_L3 (XENP25328)
[3] = biological target: 1C11_H3.230_L3 (XENP25327)

Kd (1C11_H3_L3.73): 11.9 nM | Kd (1C11_H3_L3.62): 15.5 nM | Kd (1C11_H3_L3.63): 45.1 nM | Kd (1C11_H3_L3.57): 14.5 nM | Kd (1C11_H3_L3.1): 9.95 nM | Kd (1C11_H3_L3.32): 22 nM | Kd (1C11_H3_L3.3): 15.4 nM | Kd (1C11_H3_L3.125): 6.81 nM | Kd (1C11_H3_L3.87): 21.7 nM | Kd (1C11_H3_L3.92): 18.9 nM | Kd (1C11_H3_L3.46): 18.8 nM | Kd (1C11_H3_L3.59): 10.3 nM | Kd (1C11_H3_L3.69): 33.8 nM | Kd (1C11_H3_L3.113): 19.8 nM | Kd (1C11_H3_L3.28): 15.7 nM | Kd (1C11_H3_L3.94): 18.5 nM | Kd (1C11_H3_L3.122): 1.16 nM | Kd [1]: 37.9 nM | Kd [2]: 30.1 nM | Kd [3]: 41.9 nM
B1: PD-1 (receptor)
chain: LDSPDRPWNPPTFSPALLVVTEGDNATFTCSFSNTSESFVLNWYRMSPSNQTDKLAAFPEDRSQPGQDCRFRVTQLPNGRDFHMSVVRARRNDSGTYLCGAISLAPKAQIKESLRAELRVTERRAEVPTAHPSPSPRPAGQFQ
